This is an account of results in ChEMBL document CHEMBL1136405, “Acyclic N-(azacycloalkyl)bisindolylmaleimides: isozyme selective inhibitors of PKCbeta” (Bioorg Med Chem Lett, 2003).

The target in the test is Protein kinase C (PKC). The experiment in a line: Inhibition of purified rat brain protein kinase C (RB-PKC).

By IC50 is commonly meant the midpoint of a concentration-inhibition curve. Low readings indicate greater potency in that assay, high ones weaker potency in that assay. The compound `CCN1CCC(n2cc(C3=C(c4cn(C)c5ccccc45)C(=O)NC3=O)c3ccccc32)CC1` registered a half-inhibitory concentration (IC50) of 200 nM. That is a sub-micromolar value.
